Earlier results in patent EP0623345A1, “New morphine formulations for use by iontophoretic adminstration” (dated 1994).

What was measured:
[1] = iv bolus injection
[2] = after application of electric current, Ashburn et al

Substance: morphine
- time after injection to maximum respiratory depression [1]: at least 10 minutes
- time to clinically effective blood levels of morphine [2]: 15 to 20 min
